# Structures can show the parent of a compound that is named as a salt.
# Tested on: TNFα secretion in white blood cells from human buffy coat stimulated with phorbol 12-myristate 13-acetate and ionomycin
# Experiment: TNFα secretion assay
Structure (SMILES),"inhibition at 14 µM (read-out: percent inhibition of TNFα secretion, Clemizole HCl 14 μM, Nortriptyline HCl μM r5-r13: 0,0.26,0.52,1,2.1,4.2,8.3,17,33) [%]","inhibition at 28 µM (read-out: percent inhibition of TNFα secretion, Clemizole HCl 28 μM, Nortriptyline HCl μM r5-r13: 0,0.26,0.52,1,2.1,4.2,8.3,17,33) [%]","inhibition at 16 µM (read-out: percent inhibition of TNFα secretion, Promethazine HCl 16 μM, Nortriptyline HCl μM r5-r13: 0,0.26,0.52,1,2.1,4.2,8.3,17,33) [%]","inhibition at 31 µM (read-out: percent inhibition of TNFα secretion, Promethazine HCl 31 μM, Nortriptyline HCl μM r5-r13: 0,0.26,0.52,1,2.1,4.2,8.3,17,33) [%]"
"Clc1ccc(Cn2c(CN3CCCC3)nc3ccccc32)cc1 [Clemizole HCl, clemizole]",8.96,28.9,,
"CC(CN1c2ccccc2Sc2ccccc21)N(C)C (stereo not shown) [Promethazine HCl, promethazine]",,,51.4,81.1
